Experimental data reported in patent US20050142135A1, “Agents and methods for modulating interactions between gonadotropin hormones and receptors” (University of Kentucky Research Foundation, priority 2003, published 2005).

Chains of the proteins cited; added tags and fusions are not shown. Residues count along the entry.
UniProt P23945, 18-695, stated change not applied: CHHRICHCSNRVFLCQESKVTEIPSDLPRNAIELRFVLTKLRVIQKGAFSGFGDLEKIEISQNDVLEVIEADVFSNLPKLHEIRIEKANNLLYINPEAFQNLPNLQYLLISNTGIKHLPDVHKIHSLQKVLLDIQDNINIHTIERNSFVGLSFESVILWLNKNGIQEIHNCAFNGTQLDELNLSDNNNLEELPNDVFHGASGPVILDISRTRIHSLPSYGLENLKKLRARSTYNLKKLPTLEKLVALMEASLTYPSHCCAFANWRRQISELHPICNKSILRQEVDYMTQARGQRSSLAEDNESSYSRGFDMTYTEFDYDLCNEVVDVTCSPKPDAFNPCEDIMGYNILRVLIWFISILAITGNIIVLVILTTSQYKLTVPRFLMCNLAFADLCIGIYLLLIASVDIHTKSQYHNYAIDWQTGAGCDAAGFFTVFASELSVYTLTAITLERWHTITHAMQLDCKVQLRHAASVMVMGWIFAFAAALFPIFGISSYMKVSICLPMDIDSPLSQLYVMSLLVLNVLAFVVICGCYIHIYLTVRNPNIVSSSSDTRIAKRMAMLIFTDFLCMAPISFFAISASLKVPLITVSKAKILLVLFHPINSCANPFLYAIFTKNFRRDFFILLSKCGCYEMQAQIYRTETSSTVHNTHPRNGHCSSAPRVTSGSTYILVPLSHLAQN

What was measured:
Experiment in all cases: 125I-FSH displacement / Scatchard
Details in all cases: ligand
[1] = target: FSHR K^590Y mutant (human) (UniProt P23945)
[2] = target: FSHR K^590C mutant (human) (UniProt P23945)
[3] = target: FSHR K^590E mutant (human) (UniProt P23945)
[4] = target: FSHR I^584S mutant (human) (UniProt P23945)
[5] = target: FSHR I^584C mutant (human) (UniProt P23945)
[6] = target: FSHR K^590A mutant (human) (UniProt P23945)
[7] = target: FSHR I^584P mutant (human) (UniProt P23945)
[8] = target: FSHR I^584Y mutant (human) (UniProt P23945)
[9] = target: FSHR K^590D mutant (human) (UniProt P23945)
[10] = target: FSHR I^584 deletion mutant (human) (UniProt P23945)
[11] = target: FSHR K^590R mutant (human) (UniProt P23945)
[12] = target: FSHR K^590 deletion mutant (human) (UniProt P23945)
[13] = target: FSHR I^584E mutant (human) (UniProt P23945)
[14] = target: FSHR I^584Q mutant (human) (UniProt P23945)
[15] = target: FSHR K^590P mutant (human) (UniProt P23945)

Kd [1]: 28.7 nM
Kd [2]: 5.9 nM
Kd [3]: 2.9 nM
Kd [4]: 1 nM
Kd [5]: 1.8 nM
Kd [6]: 6.9 nM
Kd [7]: 0.7 nM
Kd [8]: 1.2 nM
Kd [9]: 1.9 nM
Kd [10]: 0.8 nM
Kd [11]: 2.9 nM
Kd [12]: 1.6 nM
Kd [13]: 1.1 nM
Kd [14]: 0.8 nM
Kd [15]: 1.9 nM
Substance: human FSH (from UniProt P01215 25-116; P01225 19-129)
